This passage reports Efficacy results from ChEMBL document CHEMBL3745677, “Discovery of 6-(4-{[5-Cyclopropyl-3-(2,6-dichlorophenyl)isoxazol-4-yl]methoxy}piperidin-1-yl)-1-methyl-1H-indole-3-carboxylic Acid: A Novel FXR Agonist for the Treatment of Dyslipidemia” (J Med Chem, 2015).

The target in assay [1] is T1, Bile acid receptor (Homo sapiens) (UniProt Q96RI1).
T1 sequence (whole entry): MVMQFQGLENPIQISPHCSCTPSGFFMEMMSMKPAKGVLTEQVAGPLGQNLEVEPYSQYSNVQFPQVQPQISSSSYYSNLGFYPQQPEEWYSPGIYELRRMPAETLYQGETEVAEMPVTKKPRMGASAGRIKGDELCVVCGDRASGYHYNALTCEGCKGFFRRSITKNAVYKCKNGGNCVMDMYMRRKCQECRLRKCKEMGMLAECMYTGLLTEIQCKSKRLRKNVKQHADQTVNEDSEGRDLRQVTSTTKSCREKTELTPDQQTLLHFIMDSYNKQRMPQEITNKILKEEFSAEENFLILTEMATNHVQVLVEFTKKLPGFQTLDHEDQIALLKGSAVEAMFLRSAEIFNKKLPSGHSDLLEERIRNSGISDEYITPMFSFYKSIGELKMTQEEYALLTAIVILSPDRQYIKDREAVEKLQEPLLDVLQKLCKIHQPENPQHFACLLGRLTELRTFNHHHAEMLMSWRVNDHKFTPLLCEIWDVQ
The assay is described as follows: Agonist activity at human FXR transfected in HEK293 cells assessed as transcriptional activity by luciferase reporter gene assay relative to GW4064. The class given is cell-based. Background: A reporter such as luciferase makes a cellular process visible.

The target in assay [2] is T1, Bile acid receptor (Homo sapiens). The assay can be described thus: Agonist activity at recombinant His-tagged human FXR ligand binding domain assessed as SRC-1 coactivator recruitment after 4 hrs by luminescence analysis relative to GW4064.

For the compound `Cn1cc(C(=O)O)c2ccc(N3CCC(OCc4c(-c5c(Cl)cccc5Cl)noc4C4CC4)CC3)cc21` [TERN-101], the Efficacy in assay [1] was determined as 41%; in assay [2], 93%.
